# Measured values published in patent US20030149011A1, “Methods and reagents for extracorporeal immunomodulatory therapy” (published 2003).
# Assays:
# PBMCs [1] = assay: TUNEL staining assay (fragmented DNA); details: after 20 hours incubation, relative to mitomycin C treated cells
# murine spleen cells = assay: Phorbol ester activation of treated murine spleen cells (CD69 expression); details: 0.1% for 1 hour in vitro
# B6D2F1 hybrid mice [2] = assay: Murine GVHD model, chronic GVHD: DBA/2 parental splenocytes injected into B6D2F1 hybrid recipients
# PBMCs [3] = assay: Annexin V / propidium iodide staining for apoptosis
# B6D2F1 hybrid mice [4] = assay: Murine TAGVHD model, acute GVHD: C57BL/6 parental splenocytes injected into B6D2F1 hybrid recipients
# PBMCs [5] = assay: Mixed lymphocyte culture (MLC), treated PBMCs as responder or stimulator cells
# [6] = test system: PBMCs in whole human blood; assay: Enumeration and differential analysis of PBMCs in ethyleneimine oligomer-treated whole blood
# PBMCs [7] = assay: PHA blastogenesis (PHA-induced proliferation, [3H]-thymidine incorporation)
# DBA/2 recipients = assay: IgG alloantibody response to donor antigens, C57BL/6 donor cells and DBA/2 recipients; details: treatment of donor cells
# murine splenocytes = assay: Proliferative response of treated murine splenocytes to ConA or allogeneic cells, and as stimulator cells; details: 0.1% for 1 hour in vitro
# [8] = whole human blood incubated 6 hours with 0.1%
structure (smiles),measurement,setting,value
C1CN1,TUNEL staining,PBMCs [1],greatly increased TUNEL staining
same,Phorbol ester activation and upregulation of CD69 expression,murine spleen cells,failure of phorbol ester to activate cells and induce the upregulation of CD69 expression
same,Effect on splenomegaly,B6D2F1 hybrid mice [2]; DBA/2 donor cells,inhibition of splenomegaly
same,Effect on generalized immunoglobulin production,"B6D2F1 hybrid mice [2]; DBA/2 donor cells, compared to untreated controls",decrease in generalized immunoglobulin production
same,Immunoglobulin Production (treated/control),B6D2F1 hybrid mice [2]; donor DBA/2 cells treated,1.04 ± .034
same,Spleen mass,B6D2F1 hybrid mice [2]; donor DBA/2 cells treated,0.064 ± 0.01 mg
same,Apoptotic cells (annexin V / propidium iodide staining),"PBMCs [3]; 0.1%, 20 hours in vitro culture, relative to mitomycin C treated cells",much higher numbers of apoptotic cells
same,Time to apoptosis following treatment,PBMCs [3]; PBMCs in treated blood,≤ 24 h
same,Effect on CTL activity,B6D2F1 hybrid mice [4]; C57BL/6 donor cells,inhibition of CTL activity
same,Effect on splenomegaly,B6D2F1 hybrid mice [4]; C57BL/6 donor cells,inhibition of splenomegaly
same,Immunoglobulin Production (treated/control),B6D2F1 hybrid mice [4]; donor C57BL/6 cells treated,0.83 ± 0.37
same,Spleen mass,B6D2F1 hybrid mice [4]; donor C57BL/6 cells treated,0.065 ± 0.013 mg
same,Proliferation,"PBMCs [5]; responder cells treated (0.1%, three hours), allogeneic Mitomycin C-treated stimulator cells",527 ± 100
same,Proliferation,"PBMCs [5]; responder cells treated (0.1%, three hours), syngeneic Mitomycin C-treated stimulator cells",531 ± 145
same,Response of treated PBMC to allogeneic stimulator cells,PBMCs [5]; treated cells as responders,totally abrogate the response
same,Ability of treated cells to stimulate responder cells in the MLC,PBMCs [5]; treated cells as stimulators,unable to stimulate the responder cells to proliferate
same,Proliferation,"PBMCs [5]; untreated responder cells, allogeneic stimulator cells treated with the substance",504 ± 214
same,Proliferation,"PBMCs [5]; untreated responder cells, syngeneic stimulator cells treated with the substance",443 ± 23
same,Effect on cell count,"[6]; highest concentration tested (about 0.1%), longest time tested (6 hours)",did not affect cell count
same,Bands,[6]; [8],2%
same,Basophiles,[6]; [8],0%
same,Eosinophils,[6]; [8],2%
same,Lymphocytes,[6]; [8],20%
same,Monocytes,[6]; [8],4%
same,PMN,[6]; [8],72%
same,PBMCs,"[6]; whole human blood incubated 6 hours with 0.1%, room temperature",7.6 thousands/mm^3
same,Inhibition of PBMC proliferative response to PHA,"PBMCs [7]; about 0.1%, one hour incubation",sufficient to completely inhibit the proliferative response
same,PHA proliferation,"PBMCs [7]; blood incubated 6 hours with 0.1%, thymidine incorporation day 3",242 ± 48 cpm
same,Concentration sufficient to achieve complete inhibition of PHA-induced proliferation,PBMCs [7]; dose curves using smaller increments,about 0.01%
same,Effect on levels of IgG alloantibodies,DBA/2 recipients,significantly lower levels of IgG alloantibodies
same,Proliferative response of splenocytes to mitogen ConA stimulation or allogeneic stimulator cells,murine splenocytes,abrogates the proliferative response
same,Stimulation of proliferation of allogeneic responder cells by treated cells,murine splenocytes,do not stimulate proliferation
